Experimental findings from PubChem BioAssay AID492972 (The Scripps Research Institute Molecular Screening Center, 2010) are described below.

Amino acid sequences for entries named in this document (tags omitted).
UniProt Q15102, whole entry: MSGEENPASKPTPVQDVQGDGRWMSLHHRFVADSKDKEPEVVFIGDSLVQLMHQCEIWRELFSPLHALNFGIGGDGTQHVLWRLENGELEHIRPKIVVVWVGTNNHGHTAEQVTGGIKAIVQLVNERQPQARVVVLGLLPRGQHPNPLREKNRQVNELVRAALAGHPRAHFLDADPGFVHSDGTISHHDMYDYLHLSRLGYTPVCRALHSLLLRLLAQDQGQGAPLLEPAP

Usually inhibition stands for the relative decrease from the control value, in per cent.

The entries are a selection whose mix differs from that of the whole data set. The source made the active and inactive calls.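 How the source made its calls: active means inhibition above the screen-wide average of all tested compounds plus 3 SD (cut at about 25% in these data); inactive means the rest.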

The experiment deals with Platelet-activating factor acetylhydrolase IB subunit alpha1 (Homo sapiens) (UniProt Q15102). Briefly: inhibition of PAF acetylhydrolase 1B subunit 3 – biochemical, fluorescence polarization, human, primary screen (AID 492972).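 Further: 0% = enzyme with DMSO only and 100% = wells lacking PAFAH1B3 protein.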 The conditions noted are these: recombinant PAFAH1B3, FP-rhodamine probe, at 3.39 µM, stronger effect = higher value. (In general: In fluorescence polarisation assays a small probe gives low polarisation when free and higher when bound to something large.)
Turning to `CCC(=O)N(c1ccccc1)C1(COC)CCN(CCn2nnn(CC)c2=O)CC1`, the inhibition is inactive: 4.27%. As for `CCC(=O)N(c1ccccc1)C1(COC)CCN(CCc2cccs2)CC1`, the figure is inactive: 9.15%.
